By UniProt entry, the sequences of proteins in these tests, tags left out.
UniProt P37288, whole entry: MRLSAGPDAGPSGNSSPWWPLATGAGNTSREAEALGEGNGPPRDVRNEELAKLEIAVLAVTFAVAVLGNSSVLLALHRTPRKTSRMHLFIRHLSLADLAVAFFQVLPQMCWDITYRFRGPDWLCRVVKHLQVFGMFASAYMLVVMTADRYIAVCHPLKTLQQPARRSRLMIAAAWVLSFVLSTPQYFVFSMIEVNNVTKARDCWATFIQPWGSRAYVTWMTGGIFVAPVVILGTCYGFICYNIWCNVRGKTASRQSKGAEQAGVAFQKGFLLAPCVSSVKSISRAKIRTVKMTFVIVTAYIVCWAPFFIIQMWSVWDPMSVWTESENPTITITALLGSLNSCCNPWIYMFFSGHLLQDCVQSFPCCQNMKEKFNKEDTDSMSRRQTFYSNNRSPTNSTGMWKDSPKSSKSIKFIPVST

According to article PMC5996351:

Target: human V1a vasopressin receptor encapsulated in a SMILP (human) (UniProt P37288)
Experiment: radioligand binding; [3H]AVP as tracer on SMI-solubilized membranes containing V1aR-SMILP from HEK 293T cells; non-specific binding defined by a saturating concentration (1 uM) of unlabelled AVP; three separate experiments in triplicate

specific binding as percent of total binding: 42%
Substance: [3H]vasopressin (peptide)
